This note sets out measurements from PubChem BioAssay (NCATS).

Only a part is listed here, and it is no random draw. Inconclusive results are not listed. Active and inactive are the calls of the source. Calls come from the whole dose curve; as a rule, active = well fitted curve in the direction sought with a large enough effect; inconclusive = small, poorly fitted or top-dose-only effect, or another doubt; inactive = no such curve, though single readings can be large; an effect the other way counts as inactive or inconclusive.

Assay [1] is described as follows: Cell Viability - N2a (AID 540).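 Note: plate controls were DMSO alone for no effect and tamoxifen control for full effect; nearly all actives have a fitted effect of over 45% in size.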 As to conditions: N2a mouse neuroblastoma cell viability; at 92.2 µM (top of the series). The method, boiled down:
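Mouse neuroblastoma N2a cells, 1500/well, exposed to compounds 40 h at 37 °C in complete medium. Viability measured as cellular ATP by CellTiter-Glo luminescence; AC50 from Hill fits of concentration-response.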

Assay [2] is described as follows: Cell Viability - HUV-EC-C (AID 542). Note: % is set by controls: 0 for no effect and ±100 for the full control effect; nearly all actives have a fitted effect of over 35% in size. The method, boiled down:
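HUV-EC-C human vascular endothelial cells, 1000/well, exposed to compound for 40 hr at 37 °C in complete medium. Intracellular ATP was read by CellTiter-Glo luminescence. AC50 came from Hill-equation fits of concentration-response data.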

Assay [3] is described as follows: Cell Viability - H-4-II-E (AID 543). Note: potency is the fitted concentration of half-maximal effect; nearly all actives have a fitted effect of over 35% in size. The method, boiled down: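 Rat hepatoma H-4-II-E cells, 1500 per well, treated 40 h at 37 °C in complete medium. Cellular ATP read by CellTiter-Glo luminescence; AC50 from Hill fits of concentration-response.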
Assay [4] is described as follows: Cell Viability - SH-SY5Y (AID 544). Note: nearly all actives have a fitted effect of over 55% in size. The method, boiled down:
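SH-SY5Y human neuroblastoma cells (1500/well) incubated 5 h, then compound-treated 40 h at 37 °C in complete medium. Viability read as intracellular ATP by CellTiter-Glo luminescence after 20 min; AC50 from Hill-equation fits of qHTS concentration-response.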

The nature of assay [5]: Cell Viability - Mesenchymal (AID 546).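 Note: cells exposed to compound for 40 hours before reading.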 As to conditions: mesenchymal cells viability, qHTS; at 91.7 µM (top of the series). The method, boiled down: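 AC50 values reflect the drop in intracellular ATP in a human kidney mesenchymal line derived from normal glomeruli. Treatment lasts 40 hr at 37 °C in complete medium, and the signal comes from CellTiter-Glo luminescence.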
On the technique in general: Quantitative high-throughput screening tests each substance at several concentrations.

Assay [6] can be described thus: Cellular Toxicity (caspase-3) HepG2 (AID 654).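 Note: cells exposed to compound for 16 hours before reading; 0% = DMSO alone and 100% = caspase signal from 100 µM tamoxifen.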 The settings on record: HepG2 caspase-3 activation, luminescence, 0% = DMSO only, 100% = tamoxifen; at 92.2 µM (top of the series). In outline: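 HepG2 cells (1500/well) were treated 16 h at 37 °C in complete medium, then caspase 3/7 activity was read by Caspase-Glo luminescence. Data were normalized to DMSO and 100 uM tamoxifen; AC50 came from Hill-equation fits of qHTS concentration-response.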

Assay [7] in a line: Cellular Toxicity (caspase-3) Jurkat (AID 655).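 Note: cells exposed to compound for 16 h at 37 °C before reading.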 As to conditions: Jurkat caspase-3 activation, luminescence, DMSO = 0%, tamoxifen = 100%; at 92.2 µM (top of the series). The method, boiled down: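 5000 Jurkat cells/well; compound 16 hr, 37 °C; Caspase-Glo 3/7 added, 20 min RT; luminescence read. Norm: DMSO = 0%, tamoxifen 100 uM = 100%. AC50, Hill model.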
Assay [8] in a line: Cellular Toxicity (caspase-3) HUV-EC-C (AID 656). The settings on record: HUV-EC-C cells, caspase-3 activation (apoptosis), vehicle = 0, 100 µM tamoxifen = 100%; at 92.2 µM (top of the series). In outline:
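qHTS; HUV-EC-C, 1000 cells/well; 5 hr settle, 16 hr cmpd, 37°C; Caspase-Glo 3/7, 20 min RT; luminescence. Norm: DMSO = 0%, tamoxifen 100 uM = 100%. Hill-fit AC50.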

Assay [9] in a line: Cellular Toxicity (caspase-3) SHSY5Y (AID 657). The settings on record: SH-SY5Y caspase-3 activation, DMSO zero, 10 µM staurosporine = 100%; at 91.7 µM (top of the series). The method, boiled down:
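qHTS, SH-SY5Y, 1500 cells/well, 5 h pre-incubation 37 °C; compound 16 h 37 °C; Caspase-Glo 3/7 1 h RT; luminescence. Norm.: DMSO = 0, 10 uM staurosporine = 100%. Hill fit → AC50.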

A short description of assay [10]: Cellular Toxicity (caspase-3) BJ (AID 658). As to conditions: BJ fibroblasts, luminescence, normalized: DMSO 0%, staurosporine 100%; at 91.7 µM (top of the series). In outline:
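Readout: Caspase-Glo 3/7 luminescence increase in BJ cells after 16 hr treatment at 37 °C. Staurosporine and tamoxifen served as positive controls; AC50 values came from Hill modelling of data normalized to DMSO and 10 uM staurosporine.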

Assay [11] is described as follows: Cellular Toxicity (caspase-3) MRC-5 (AID 659). The settings on record: MRC-5 cells, luminescence, normalized: DMSO 0%, 10 µM staurosporine 100%; at 91.7 µM (top of the series). In outline: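 Concentration-dependent caspase 3/7 activation is measured in human normal lung fibroblasts (MRC-5) following 16-hour treatment. AC50 values come from standard Hill-equation modeling of luminescence normalized to DMSO and 10 uM staurosporine.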

Assay [12] can be described thus: Cellular Toxicity (caspase-3) Mesangial (AID 660).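 Note: cells exposed to compound for 16 h before the caspase read.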 The settings on record: mesangial cells, normalized: DMSO 0%, 100 µM tamoxifen 100%; at 91.7 µM (top of the series). The method, boiled down: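 Human renal glomerular mesangial cells, 1000/well, 5 h at 37 C before 16 h compound treatment. Caspase-Glo 3/7 luminescence after 20 min; normalized to DMSO and 100 uM tamoxifen, AC50 from Hill fit.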

The nature of assay [13]: Cellular Toxicity (caspase-3) SK-N-SH (AID 661). As to conditions: SK-N-SH caspase-3 activation, qHTS, DMSO as zero, staurosporine as full; at 91.7 µM (top of the series). The method, boiled down:
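Human SK-N-SH neuroblastoma cells, 1500/well, were exposed to compounds for 16 hours at 37 °C. Caspase-Glo 3/7 luminescence was normalized to DMSO (basal) and 10 uM staurosporine (100%), and AC50 came from a Hill fit.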

Assay [14] can be described thus: Cellular Toxicity (caspase-3) H-4-II-E (AID 663).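 Note: cells exposed to compound for 16 hr before readout.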 The settings on record: H-4-II-E rat hepatoma, scaled: DMSO 0%, 100 µM tamoxifen 100%; at 92.2 µM (top of the series). In outline: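 Apoptosis induction is scored as increased luminescence from caspase 3/7 substrate cleavage in rat hepatoma H-4-II-E cells exposed to compound for 16 hr. Activity is scaled between DMSO and 100 uM tamoxifen.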

A short description of assay [15]: Cellular Toxicity (caspase-3) Hek293 (AID 664).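 Note: cells exposed to compound for 16 h at 37 °C before readout.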 As to conditions: HEK293 caspase-3 activation, DMSO = 0%, 100 µM tamoxifen = 100%; at 92.2 µM (top of the series). The method, boiled down:
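HEK293 cells in complete medium treated 16 h at 37 °C, then Caspase-Glo 3/7 luminescence read after 20 min at room temperature. Normalized to DMSO and 100 uM tamoxifen; AC50 from Hill fit of concentration-response.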

Assay [16] in a line: Cellular Toxicity (caspase-3) N2a (AID 665).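 Note: compound exposure lasted 16 h at 37 °C before readout.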 The settings on record: N2a cells, luminescence, normalized: DMSO 0%, 10 µM staurosporine 100%; at 92.2 µM (top of the series). In outline: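 Mouse N2a neuroblastoma cells, 1500 per well, treated 16 h at 37 °C in complete medium; caspase-3/7 activity by Caspase-Glo luminescence after 1 h. Normalized to DMSO and 10 uM staurosporine; AC50 from Hill fits.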

Assay [17] is described as follows: Cellular Toxicity (caspase-3) NIH 3T3 (AID 666).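 Note: caspase signal read after 16 h compound exposure.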 The settings on record: NIH 3T3 caspase-3 activation, apoptosis/toxicity, 0% DMSO, 100% is 100 µM tamoxifen; at 92.2 µM (top of the series). The method, boiled down: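 Mouse NIH 3T3 fibroblasts (1000/well) treated 16 h at 37 C; caspase-3/7 activity measured by Caspase-Glo 3/7 luminescence after 20 min. Normalized to DMSO and 100 uM tamoxifen; AC50 from Hill fits.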

Assay [18] can be described thus: Cellular Toxicity (caspase-3) Renal Proximal Tubule (AID 667).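 Note: cells exposed to compound for 16 hours at 37 °C before detection.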 As to conditions: renal proximal tubule cells, primary cells freshly taken from rat, solvent-only wells 0%, staurosporine 100%; at 91.7 µM (top of the series). In outline: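 AC50 derived by standard Hill fit of concentration-response data, normalized between DMSO basal and 10 uM staurosporine as 100% stimulation. Cells: primary rat kidney proximal tubule, 16 h treatment at 37 °C.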

Consider `Cc1cc([N+](=O)[O-])cc([N+](=O)[O-])c1O`, for which the activity change, negative = cytotoxicity in assay [1] was active: -115%; in assay [5], inactive: -7.68%. The Potency result in [2] and in [4] was “inactive” throughout. Further, the Potency in assay [3] was active: 39.8 µM. Further, the caspase-3 activation in [6] is inactive: -2.08%; in assay [7], inactive: -1.76%; in [8] it was inactive: -7.14%; in [9] it was inactive: 0.976%; in assay [10], inactive: -0.613%; in assay [11], inactive: 0.76%. In addition, the caspase-3 activation in assay [12] was inactive: -0.243%; in [13] it was inactive: -1.97%; in assay [14], inactive: 12.8%; in assay [15], inactive: -0.149%; in [16] it was inactive: 4.16%; in assay [17] it was inactive: -17%. For the same molecule, in assay [18], the caspase-3 activation is inactive: -2%.
